In BindingDB's records for doi:10.1021/jm00128a043 (Wellcome Research Laboratories, 1989) one finds Ki data, which are given here for three compounds.

Each structure is given as a SMILES string.

For the experiment, the system named is Escherichia coli (whole organism, antibacterial activity). The experiment in a line: Antibacterial activity against Escherichia coli.
In turn, `C=CCc1cc(Cc2cnc(N)nc2N)cc(OC)c1OC` yielded a Ki of 1.8 nM.
`C=CCc1cc(Cc2cnc(N)nc2N)cc(OC)c1O` returned an inhibition constant (Ki) of 0.8 nM.
Next, `CCCc1cc(Cc2cnc(N)nc2N)cc(OC)c1OC`: 0.4 nM.

The Ki is the dissociation constant of the complex between target and ligand, obtained from inhibition or displacement.
